Assay results: patent publication US20220087987A1, “A METHOD FOR TREATING SWI/SNF COMPLEX-DEFICIENT CANCERS COMPRISING GLUTATHIONE (GSH) METABOLIC PATHWAY INHIBITOR” (National Cancer Center, priority 2018, published 2022)

Assay: in vitro
Conditions: human

COc1ccc(C[C@H]2NC[C@H](O)[C@H]2OC(C)=O)cc1 [anisomycin]
viability: 5.36%
